Source: PubChem BioAssay AID686979 (National Center for Advancing Translational Sciences (NCATS), 2013)
Only a part is listed here, and it is no random draw. Inconclusive results are not listed. Entries that show only a call come without a potency. Calls of active or inactive are those of the source. The call rests on the fitted dose curve; in most records, active means well fitted inhibition curve with a large enough effect; inconclusive means small, poorly fitted or top-dose-only effect; inactive means flat fitted curve, though single readings scatter.

Assay: qHTS for Inhibitors of human tyrosyl-DNA phosphodiesterase 1 (TDP1): qHTS in cells in presence of CPT; further: nearly all actives have a fitted effect of over 55% in size
Settings: chicken DT40 Tdp1-/-;hTDP1 cells + 20 nM CPT, ATP luminescence, 48 h; series mostly up to 92.5 µM
Potency means the concentration at half of the fitted maximal effect.

Structure (SMILES) | Potency
CCC(=O)N(c1ccccc1)C1(COC)CCN(CCc2cccs2)CC1 | active: 13.7 µM
CCC(=O)N(c1ccccc1)C1(COC)CCN(CCn2nnn(CC)c2=O)CC1 | inactive
